Molecular target: T1, interaction between the integrin LFA-1 and its adhesion partner ICAM-1 (Homo sapiens, UniProt P20701)
T1 construct: Recombinant LFA-1 (100 μL of 0.7 μg/ml mL, ICOS Corporation) in D-PBS; purchased ICOS Corporation
Experiment: ICAM-1/LFA-1 Biochemical Interaction Assay
Format: binding
Details: read-out: % inhibition @ 4 μM

Chains of the proteins cited; added tags and fusions are not shown. Residues count along the entry.
UniProt P20701, 26-1170: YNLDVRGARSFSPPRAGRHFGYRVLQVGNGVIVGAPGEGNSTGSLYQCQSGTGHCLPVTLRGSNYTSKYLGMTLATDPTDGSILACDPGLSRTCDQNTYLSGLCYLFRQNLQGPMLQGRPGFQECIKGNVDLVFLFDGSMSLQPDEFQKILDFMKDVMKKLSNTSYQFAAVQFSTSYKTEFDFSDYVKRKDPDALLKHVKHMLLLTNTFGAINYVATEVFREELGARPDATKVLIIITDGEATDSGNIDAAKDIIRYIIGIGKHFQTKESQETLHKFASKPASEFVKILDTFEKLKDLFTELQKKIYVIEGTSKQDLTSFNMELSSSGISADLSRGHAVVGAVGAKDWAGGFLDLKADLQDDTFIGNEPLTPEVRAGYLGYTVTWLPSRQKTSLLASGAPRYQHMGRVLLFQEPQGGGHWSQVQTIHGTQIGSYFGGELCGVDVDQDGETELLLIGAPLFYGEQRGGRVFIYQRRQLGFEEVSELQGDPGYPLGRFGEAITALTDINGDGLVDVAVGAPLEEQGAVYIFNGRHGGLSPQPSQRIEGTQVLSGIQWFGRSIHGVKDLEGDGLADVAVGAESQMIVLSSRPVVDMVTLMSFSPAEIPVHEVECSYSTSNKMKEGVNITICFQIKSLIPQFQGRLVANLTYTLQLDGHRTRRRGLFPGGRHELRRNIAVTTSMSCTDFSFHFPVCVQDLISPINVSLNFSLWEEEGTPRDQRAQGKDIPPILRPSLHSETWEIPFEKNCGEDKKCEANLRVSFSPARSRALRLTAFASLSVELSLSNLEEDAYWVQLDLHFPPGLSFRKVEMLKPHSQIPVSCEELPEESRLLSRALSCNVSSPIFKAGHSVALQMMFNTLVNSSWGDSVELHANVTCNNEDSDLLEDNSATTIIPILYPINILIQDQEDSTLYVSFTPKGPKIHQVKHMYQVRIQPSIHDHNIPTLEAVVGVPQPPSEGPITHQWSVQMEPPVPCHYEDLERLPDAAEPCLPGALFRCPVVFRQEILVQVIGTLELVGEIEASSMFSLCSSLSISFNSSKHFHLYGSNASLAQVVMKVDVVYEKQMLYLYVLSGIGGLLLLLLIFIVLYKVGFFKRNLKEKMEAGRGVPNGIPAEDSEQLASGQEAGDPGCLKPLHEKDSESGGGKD

Work on CC(=O)N1CCN(C(=O)/C=C/c2ccc(Sc3ccccc3C(C)C)c([N+](=O)[O-])c2)CC1 [Example 50, (2-iso-Propylphenyl)[2-nitro-4-(E-((4-acetylpiperazin-1-yl)carbonyl)ethenyl)phenyl]sulfide] yielded an inhibition at 4 µM of 94%.
